Source: PubChem BioAssay (ICCB-Longwood Screening Facility, Harvard Medical School)
Compounds with a hit are over-represented: about 0.43% of the library has one in this group of screens.
HCMV UL50-53 inh – inhibitors of HCMV UL50-UL53 interaction, biochemical, HTRF; normalized percent inhibition; inhibition, % (no concentration beside the values); hit rate 0.15% among 190,000; AID 1918969, 2023; in the data active = inhibition above about 27%, passing the limit was not always enough
GIV-Gai inh – inhibitors of GIV peptide binding to Galpha-i3, primary screen, biochemical, fluorescence polarization, FITC-GIV GBA peptide, rat Galphai3. Guanine nucleotide-binding protein G(i) subunit alpha-3 (Rattus norvegicus), P08753. 90 min; stronger effect = lower value; scaled: aluminum fluoride 0%, vehicle 100%. percent of control (FP), % (test concentration not listed). hit rate 0.42% among 210,000. AID 1224905, 2016;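 active = replicate mean at 85% of control or lower, very high polarization wells dropped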;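 note: wells of about 15 µL received 100 nL stock; the first replicate is given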
Active calls of the source: *; / = not tested or not shown; ! = repeats disagree.

Amino acid sequences for entries named in this document (tags omitted).
Guanine nucleotide-binding protein G(i) subunit alpha-3 (Rattus norvegicus), P08753, UniProt P08753, whole entry, looked up: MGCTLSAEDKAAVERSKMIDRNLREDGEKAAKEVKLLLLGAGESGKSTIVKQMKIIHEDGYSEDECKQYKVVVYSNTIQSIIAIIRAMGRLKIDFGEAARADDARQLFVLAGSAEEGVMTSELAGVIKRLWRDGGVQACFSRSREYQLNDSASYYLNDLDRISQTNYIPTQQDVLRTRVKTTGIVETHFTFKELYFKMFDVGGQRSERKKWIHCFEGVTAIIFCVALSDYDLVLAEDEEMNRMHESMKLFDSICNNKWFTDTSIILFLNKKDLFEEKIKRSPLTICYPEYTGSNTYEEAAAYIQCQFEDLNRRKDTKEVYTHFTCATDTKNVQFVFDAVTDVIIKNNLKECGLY

compound	HCMV UL50-53 inh	GIV-Gai inh
Cc1ccc(-n2[nH]c(=O)c(N=O)c2O)cc1C	/	85*
CC(=O)Nc1ccc(N=Cc2c(C)[nH]n(-c3ccc(C)c(C)c3)c2=O)cc1	/	117
O=C(O)C1CC(=O)N(CCC23CC4CC(CC(C4)C2)C3)C(=Nc2ccc(Cl)cc2)S1 (stereo unspecified)	-60	/
CC(=O)NC(Cc1c[nH]c2ccccc12)C(=O)NCc1ccc(C(C)(C)C)cc1 (stereo unspecified)	8	103
CC(COc1ccccc1)N(CCCl)Cc1ccccc1 (stereo unspecified)	89*!	99
CC(C)NCC(O)COc1ccccc1 (stereo unspecified)	25	104
CC(=Nc1cccc(Br)c1)c1sc2ccccc2c1O	-32	56*
CC(=Nc1cccc(O)c1)c1sc2ccccc2c1O	-66	175
Cc1c(C(=O)NC2CCOc3ccccc32)oc2ccccc12 (stereo unspecified)	-24	/
Fc1ccccc1-c1nnc2ccc(C(F)(F)F)cn12	57*	/
O=C(O)c1ccccc1-c1nnc2c(Cl)cc(C(F)(F)F)cn12	-22	99
CC(Sc1nnc(-c2ccco2)n1Cc1ccccc1)C(=O)NC1CCCC1 (stereo unspecified)	-44	/
CN(Cc1cccs1)C(=O)c1cccc(C#N)c1	-23	/
O=C1/C(=C/C2CC=CCC2)SC(=S)N1CC1CCCO1 (stereo unspecified)	/	100
O=C1/C(=C/c2ccc(O)cc2)SC(=S)N1CC1CCCO1 (stereo unspecified)	/	-24*
Cc1cccc(-n2c(SC3CCOC3=O)nnc2-c2cccc(S(=O)(=O)N(C)C)c2)c1 (stereo unspecified)	2	/
O=C1NC(=Nc2ccc(F)cc2)S/C1=C/c1ccc(N2CCCC2)o1	-22	/
O=C1NC(=Nc2ccc(F)cc2)S/C1=C/c1ccc(N2CCCCCC2)o1	-28	-78*
Cc1ccc(NC(=O)CCCNC(=O)Cn2cnc3sc4c(c3c2=O)CCCC4)c(Br)c1	/	102
CN(C)c1ccc(/C=C2/CCC/C(=C\c3ccc(N(C)C)cc3)C2=O)cc1	-15	188
CC(C)/C=C1\CC/C(=C\c2ccc(N(C)C)cc2)C1=O	/	-75*
COc1ccccc1-c1nnc(SCC(=O)OC(C)C)n1-c1ccccc1	20	105
COc1cccc2c1N=C1OC=CC1C2OC (stereo unspecified)	54*	/
CN1CCCc2cc(/C=C3\Cc4ccccc4C3=O)ccc21	/	-75*
COc1cc(/C=C2\Cc3ccccc3C2=O)ccc1O	-97	140
CCc1cccc(NC(=O)CN(C2=NC3CS(=O)(=O)CC3S2)c2cccc(C)c2)c1 (stereo unspecified)	3	103
CCCn1c2ccccc2c2nnc(SCC(=O)Nc3ccc4c(c3)OCCO4)nc21	-5	102
Cc1cc(C)cc(N2C(=O)c3ccccc3C2C(=O)NCCC(C)C)c1 (stereo unspecified)	/	112
CCOC(=O)C1=C(C)OC(N)=C(C#N)C1c1cccc(C(F)(F)F)c1 (stereo unspecified)	/	100
N#CC1=C(N)SC(N)=C(C#N)C1c1ccc(O)cc1	-41	-74*

Complete entries, quoted from the list. Order of values: HCMV UL50-53 inh	GIV-Gai inh
Entry for COc1ccccc1-c1nnc(SCC(=O)OC(C)C)n1-c1ccccc1 = 20	105
Entry for CN(C)c1ccc(/C=C2/CCC/C(=C\c3ccc(N(C)C)cc3)C2=O)cc1 = -15	188
Entry for Cc1cccc(-n2c(SC3CCOC3=O)nnc2-c2cccc(S(=O)(=O)N(C)C)c2)c1 (stereo unspecified) = 2	/
Entry for CN(Cc1cccs1)C(=O)c1cccc(C#N)c1 = -23	/
Entry for O=C1NC(=Nc2ccc(F)cc2)S/C1=C/c1ccc(N2CCCC2)o1 = -22	/

Following part:
compound	HCMV UL50-53 inh	GIV-Gai inh
CC(C)c1ccc(C2C(C#N)=C(N)SC(N)=C2C#N)cc1	-25	/
N#CC1=C(N)SC(N)=C(C#N)C1c1cccc(C(F)(F)F)c1	-50	-83*
N#CC1=C(N)SC(N)=C(C#N)C1c1cccs1	-48	-54*
CC(=O)C1=C(C)OC(N)=C(C#N)C1c1cccs1 (stereo unspecified)	/	100
OC(COc1ccc(F)cc1)Cn1c(Cc2ccccc2)nc2ccccc21 (stereo unspecified)	-30	103
CC(C)(C)NC(=O)COc1ncnc2sccc12	-32	/
COC(=O)C1=C(NC(=O)c2cccc3ccccc23)CCS1	-6	106
CCCc1nc(CNC(=O)C2CSCN2C(=O)c2ccc(C(C)(C)C)cc2)cs1 (stereo unspecified)	/	102
CN(CCO)c1nc(N)c2c(N)nc3c(c2c1C#N)CC(=O)N3C1CCCC1	101*	/
N#Cc1c(N2CCCC(C(=O)O)C2)nc(N)c2c(N)nc3c(c12)CC(=O)N3C1CCCC1 (stereo unspecified)	-18	/
COc1ccc(-n2c(C)cc(CNS(=O)(=O)c3ccc4c(c3)CC(C)N4C(C)=O)c2C)cc1 (stereo unspecified)	-4	117
Cc1c(C(=O)NCCCN2CCOCC2)sc2ncnc(N3CCc4ccccc4C3)c12	/	114
CCN(CC)c1ccc(N2C(=O)/C(=C/c3ccccc3)SC2=S)cc1	-8	/
CCN(CC)c1ccc(/C=C2\SC(=S)N(c3c(C)n(C)n(-c4ccccc4)c3=O)C2=O)cc1	/	26*
CCN(CC)CCn1c(SCC(=O)Nc2cccc(OC)c2)nc2c(sc3ccccc32)c1=O	/	103
Cc1ccc(NC(=O)CSc2nc3c(oc4ccccc43)c(=O)n2Cc2ccc(F)cc2)c(C)c1	/	109
COc1ccc(C)cc1NC(=O)CSc1nc2c(sc3ncccc32)c(=O)n1Cc1ccc(F)cc1	55*	102
COc1cccc(NC(=O)CSc2nc3c(sc4ncccc43)c(=O)n2Cc2ccc(C)cc2)c1	79*	100
CC(=O)Nc1ccc(S(=O)(=O)NCc2ccc3c(c2)CCN3C(=O)c2ccc(F)cc2)cc1	/	106
N#Cc1ccccc1Cn1c(=O)n(Cc2ccccc2)c(=O)c2ccccc21	/	109
CCN(CC)c1ccc(C=C2C(=O)OC3(CCCC3)OC2=O)cc1	4	-26*
CCN(CC)c1ccc(C=C2C(=O)OC(c3ccccc3)OC2=O)cc1 (stereo unspecified)	9	/
CN(C)c1ccc(C=C2C(=O)OC(C)(C(C)(C)C)OC2=O)cc1 (stereo unspecified)	1	17*
CN(C)c1ccc(C=C2C(=O)OC(C)(C)OC2=O)cc1	-25	115
CN1C=C/C(=C\C=C(/C#N)C(=O)Nc2ccccc2)c2ccccc21	/	114
Cc1cc2nc3c(=O)[nH]c(=O)nc-3n(C(O)C(O)C(O)C(O)CO)c2cc1C (stereo unspecified)	-132	-74*
Cc1cc2nc3c(=O)[nH]c(=O)nc-3n(C[C@@H](O)[C@@H](O)[C@@H](O)COP(=O)(O)O)c2cc1C	-166	/
CCOc1cc(N2CCOCC2)c(OCC)cc1NC(=O)c1cc(S(=O)(=O)N(C)C)ccc1Cl	-12	/
COc1ccc(CCNC(=O)c2ccc3c(=O)n(Cc4ccc5c(c4)OCO5)c(=S)[nH]c3c2)cc1OC	/	107
CCCCCCCCN1/C(=C/C=C/c2n(CCCCCCCC)c3cc(Cl)c(Cl)cc3[n+]2CCCCC)N(CCCCC)c2cc(Cl)c(Cl)cc21	/	144

(cont.)
compound	HCMV UL50-53 inh	GIV-Gai inh
C=CCN1/C(=C\C=C\c2n(CC=C)c3cc(Cl)c(Cl)cc3[n+]2CCCCCCCC)N(CCCCCCCC)c2cc(Cl)c(Cl)cc21	/	-62*
CCC(=O)Nc1nc2c(s1)CSc1ccccc1-2	-70	107
Cc1ccc(C2=NN3C(C2)c2ccccc2OC32CCCC2)o1 (stereo unspecified)	-54	287
CCOC(=O)c1c2ccc(O)cc2n2ccccc12	-49	69*
CCOC(=O)c1c(C)n(C)c2ccc(O)cc12	-15	108
COC(=O)CC1SC(=O)NC1=Nc1ccc(C)cc1 (stereo unspecified)	0	/
